Test results reported in paper PMC7056826, “Crystal Structure of the Chloroplastic Glutamine Phosphoribosylpyrophosphate Amidotransferase GPRAT2 From Arabidopsis thaliana” (Frontiers in Plant Science, 2020).

Molecular target: T1, AtGPRAT2 (Arabidopsis thaliana, UniProt Q9STG9)
T1 sequence (Q9STG9 87-561): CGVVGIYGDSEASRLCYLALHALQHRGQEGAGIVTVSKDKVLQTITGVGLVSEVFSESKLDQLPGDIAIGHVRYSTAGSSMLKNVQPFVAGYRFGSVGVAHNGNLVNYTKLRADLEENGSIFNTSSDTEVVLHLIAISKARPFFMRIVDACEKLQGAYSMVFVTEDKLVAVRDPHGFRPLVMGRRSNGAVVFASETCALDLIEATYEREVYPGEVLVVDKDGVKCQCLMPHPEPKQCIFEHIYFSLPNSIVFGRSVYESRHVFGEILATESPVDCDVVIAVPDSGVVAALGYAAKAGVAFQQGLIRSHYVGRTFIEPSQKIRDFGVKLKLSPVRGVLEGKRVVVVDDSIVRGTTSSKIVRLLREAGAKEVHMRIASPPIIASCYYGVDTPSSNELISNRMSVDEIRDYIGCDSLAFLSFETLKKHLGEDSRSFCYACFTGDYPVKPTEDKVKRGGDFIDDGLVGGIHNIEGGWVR
Parameters: gene ASE2
Conditions: recombinant AtGPRAT2 75-561; crystallised without DAS734 or PRPP

[S]12[Fe]3[S]4[Fe]1[S]1[Fe]2[S]3[Fe]41 [4Fe-4S cofactor]
crystal structure, 3.07 Å: two AtGPRAT2 molecules were found in the asymmetric unit, each with a 4Fe-4S cofactor
